Tests used:
Assay in all cases: competition with [125I]-NDP-alpha-MSH, CHO-K1 cell membranes
[1] = target: human melanocortin-4 receptor (human) (UniProt P32245)
[2] = target: human melanocortin-1 receptor (human) (UniProt Q01726)
[3] = target: human melanocortin-3 receptor (human) (UniProt P41968)
[4] = target: human melanocortin-5 receptor (human) (UniProt P33032)

Sequences of proteins named here, by UniProt entry; tags and fusion partners are left off. A change or cut given only in a name is not applied to a line headed by its entry.
UniProt P32245, whole entry: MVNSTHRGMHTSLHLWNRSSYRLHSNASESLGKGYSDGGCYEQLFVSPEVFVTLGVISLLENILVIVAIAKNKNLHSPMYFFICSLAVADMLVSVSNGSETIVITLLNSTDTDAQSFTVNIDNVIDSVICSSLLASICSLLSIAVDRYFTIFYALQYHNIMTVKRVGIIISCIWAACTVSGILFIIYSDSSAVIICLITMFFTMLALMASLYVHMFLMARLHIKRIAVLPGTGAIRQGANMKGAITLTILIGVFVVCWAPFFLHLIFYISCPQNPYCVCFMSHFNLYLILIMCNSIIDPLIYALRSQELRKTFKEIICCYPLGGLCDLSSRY
UniProt Q01726: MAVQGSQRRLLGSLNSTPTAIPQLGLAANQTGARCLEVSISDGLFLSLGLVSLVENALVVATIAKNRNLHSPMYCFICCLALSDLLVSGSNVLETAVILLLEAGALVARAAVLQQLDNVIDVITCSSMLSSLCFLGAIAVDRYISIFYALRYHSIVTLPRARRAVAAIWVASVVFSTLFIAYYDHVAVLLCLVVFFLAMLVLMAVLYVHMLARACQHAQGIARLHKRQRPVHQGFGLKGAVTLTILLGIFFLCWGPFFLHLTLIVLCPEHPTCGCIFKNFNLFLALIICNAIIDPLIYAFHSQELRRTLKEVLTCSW
UniProt P41968: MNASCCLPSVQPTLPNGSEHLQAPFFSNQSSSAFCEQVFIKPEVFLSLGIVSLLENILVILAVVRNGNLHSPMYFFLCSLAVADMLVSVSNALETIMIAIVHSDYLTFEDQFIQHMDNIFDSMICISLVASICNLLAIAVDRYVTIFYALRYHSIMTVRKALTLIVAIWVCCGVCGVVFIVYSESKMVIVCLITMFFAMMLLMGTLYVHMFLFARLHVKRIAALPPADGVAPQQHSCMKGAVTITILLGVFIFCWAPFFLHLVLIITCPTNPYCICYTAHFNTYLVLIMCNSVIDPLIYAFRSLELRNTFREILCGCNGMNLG
UniProt P33032: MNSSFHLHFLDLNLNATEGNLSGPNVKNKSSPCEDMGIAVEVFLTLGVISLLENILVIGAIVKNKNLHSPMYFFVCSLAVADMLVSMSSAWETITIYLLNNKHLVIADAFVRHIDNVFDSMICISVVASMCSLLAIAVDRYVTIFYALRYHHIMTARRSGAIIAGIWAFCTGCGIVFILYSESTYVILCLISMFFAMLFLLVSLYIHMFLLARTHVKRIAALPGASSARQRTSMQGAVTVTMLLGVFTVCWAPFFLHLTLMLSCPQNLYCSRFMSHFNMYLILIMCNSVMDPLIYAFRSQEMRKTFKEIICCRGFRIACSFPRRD

Row | Substance | Ki [1] [nM] | Ki [2] [nM] | Ki [3] [nM] | Ki [4] [nM]
1 | Hydantoin(C(O)-(Gly-Gly))-cyclo(Cys-D-Ala-His-D-Phe-Arg-Trp-Pen)-NH2 (peptide) | 10.4 | 127 | 811 | 381
2 | Hydantoin(C(O)-(Nle-Gly))-cyclo(Cys-D-Ala-His-D-Phe-Arg-Trp-Pen)-NH2 (peptide) | – | – | 38.5 | –
3 | cyclo[Hydantoin(C(O)-(Asp-A5c))-D-2-Nal-Arg-Trp-Lys]-NH2 (peptide) | – | – | – | 1100
4 | cyclo[Hydantoin(C(O)-(Asp-Apc))-D-2-Nal-Arg-Trp-Lys]-NH2 (peptide) | – | – | – | 1100

Reference: patent publication US20210163536A1
